Article PMC8718112, “Functional independence of endogenous μ- and δ-opioid receptors co-expressed in cholinergic interneurons” (eLife, 2021)

By UniProt entry, the sequences of proteins in these tests, tags left out.
UniProt P42866, whole entry: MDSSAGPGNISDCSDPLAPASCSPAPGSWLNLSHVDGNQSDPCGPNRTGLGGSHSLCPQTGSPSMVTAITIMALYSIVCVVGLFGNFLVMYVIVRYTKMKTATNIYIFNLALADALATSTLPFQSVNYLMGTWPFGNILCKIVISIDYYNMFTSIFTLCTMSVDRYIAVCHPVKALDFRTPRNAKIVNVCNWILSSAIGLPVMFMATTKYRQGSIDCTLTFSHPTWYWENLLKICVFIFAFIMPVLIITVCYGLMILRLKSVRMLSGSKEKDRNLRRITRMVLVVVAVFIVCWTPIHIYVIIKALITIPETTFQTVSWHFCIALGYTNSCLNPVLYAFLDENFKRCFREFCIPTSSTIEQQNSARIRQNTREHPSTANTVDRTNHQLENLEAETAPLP

Target: T1, µ-opioid receptor (MOR) (Mus musculus, UniProt P42866)
T1 construct: gene Oprm1

Question: Which “% inhibition of firing at 10 μM” value does the source give for `CN1CC[C@]23c4c5ccc(O)c4O[C@H]2[C@@H](O)C=C[C@H]3[C@H]1C5` [morphine] here?
Answer: 79.4 ± 5.0
